Earlier results, collected in patent publication US20130084312A1, “NANOPARTICLES FOR DELIVERY OF BIOACTIVE AGENTS” (ROSE PHARMACEUTICALS, LLC, priority 2011, published 2013).

The chains behind the UniProt entries cited, without tags or fusion partners.
UniProt P32238, whole entry: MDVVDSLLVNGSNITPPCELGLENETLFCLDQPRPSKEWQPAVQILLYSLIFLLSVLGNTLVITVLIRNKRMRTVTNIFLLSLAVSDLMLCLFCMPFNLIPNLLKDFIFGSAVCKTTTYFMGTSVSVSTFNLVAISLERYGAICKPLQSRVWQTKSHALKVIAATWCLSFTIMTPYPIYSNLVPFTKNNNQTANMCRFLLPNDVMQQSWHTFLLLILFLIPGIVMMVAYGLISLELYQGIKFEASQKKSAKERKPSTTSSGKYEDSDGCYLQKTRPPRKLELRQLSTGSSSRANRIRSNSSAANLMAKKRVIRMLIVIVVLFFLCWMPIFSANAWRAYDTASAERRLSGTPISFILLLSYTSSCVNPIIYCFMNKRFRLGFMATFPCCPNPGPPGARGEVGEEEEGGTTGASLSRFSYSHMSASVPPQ

Columns and labels:
[1] = target: CCKA receptors (Homo sapiens, UniProt P32238); settings: relative to sulfated CCK-8
[2] = target: T1, CCK receptor, homogenates from the cerebral cortex (Homo sapiens, UniProt P32239)
T1 construct: host or cells: cerebral cortex homogenates
T1 sequence (P32239 1-447): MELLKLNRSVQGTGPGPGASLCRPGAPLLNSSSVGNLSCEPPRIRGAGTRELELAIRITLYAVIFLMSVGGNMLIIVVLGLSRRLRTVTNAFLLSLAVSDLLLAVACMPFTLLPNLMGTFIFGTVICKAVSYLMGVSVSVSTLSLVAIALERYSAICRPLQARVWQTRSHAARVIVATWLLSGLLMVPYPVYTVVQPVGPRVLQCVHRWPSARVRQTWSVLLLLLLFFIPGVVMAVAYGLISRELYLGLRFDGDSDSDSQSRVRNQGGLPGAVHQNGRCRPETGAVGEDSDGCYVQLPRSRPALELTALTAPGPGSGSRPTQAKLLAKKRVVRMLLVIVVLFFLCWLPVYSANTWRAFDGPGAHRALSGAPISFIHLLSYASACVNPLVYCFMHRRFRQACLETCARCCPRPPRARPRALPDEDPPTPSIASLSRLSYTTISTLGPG

[3] = target: T2, CCKB receptors (Homo sapiens, UniProt P32239)
T2 sequence (P32239 1-447): T1 sequence (P32239 1-447)

Question: With Trp-Met-Asp-Phe-NH2 [CCK-4] as the substance, how does the “fold lower affinity for CCKA receptors than the sulfated form of CCK-8” value [1] read?
Answer: Its value is 10,000 fold.

Question: What about the “concentration displacing CCK receptor binding relative to sulfated CCK-8” value [2] of the same substance?
Answer: Its value is “equimolar, 10-fold or 100-fold greater”.

Question: And the “affinity for CCKB receptors” value [3]?
Answer: Its value is “high affinity and selectivity”.
